## Yeast mating assay B: variants of the scFv Ab-14

Source: Li et al. 2023 (doi:10.1038/s41467-023-39022-2), MIT Lincoln Laboratory and A-Alpha Bio; data file from the FLAb repository.

Target peptide (SARS-CoV-2 spike, HR2 region): PDVDLGDISGINAS

Each scFv is VH, the linker GGGGSGGGGSGGGGS, VL, as in the parent Ab-14, and differs from it in the CDRs of the heavy chain only.
VH: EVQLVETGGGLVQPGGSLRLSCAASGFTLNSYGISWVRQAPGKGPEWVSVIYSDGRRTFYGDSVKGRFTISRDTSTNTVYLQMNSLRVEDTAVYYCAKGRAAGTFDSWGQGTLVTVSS
VL: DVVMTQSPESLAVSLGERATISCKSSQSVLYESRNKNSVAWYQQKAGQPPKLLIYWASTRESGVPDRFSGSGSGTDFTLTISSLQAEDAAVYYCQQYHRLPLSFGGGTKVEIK

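Phage display of a naive human antibody library on the peptide gave the parent. These sequences belong to a second round, designed from the earlier measurements on random variants of the parent. Group labels follow the data file (Ctrl: baseline library sampled from a position-specific scoring matrix, with some repeated check sequences; Rand: our label for a block that the file lists under HC and that is probably the random mutants of the ten best first-round binders; En: ensemble of fine-tuned language models; GP: Gaussian process model; GPLM: also part of the Gaussian process libraries; HC: hill climbing; Gen: genetic algorithm; Gibbs: Gibbs sampling; a sequence that several methods proposed may carry one label only). AlphaSeq pools MATa yeast showing the antibodies with MATalpha yeast showing the peptide. After mating in shaken culture at 30 °C for 16 h, diploids were selected and their barcode pairs sequenced. Scores were corrected for input abundance and mapped to Kd with protein pairs of known affinity run in the same pool. Each pool was mated in six replicate cultures.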

Variants are written as CDR1, CDR2 and CDR3 of the heavy chain (limits as in the source). Parent: GFTLNSYGIS, VIYSDGRRTFYGDSVK, GRAAGTFDS.
Numbers give log10(Kd / nM), so 0 is 1 nM and 3 is 1 µM. Smaller is tighter.
Where no diploid with the target was found in that replicate, the entry reads "n.d.": below detection, most likely a poor binder, though not proof of it.

CDR-H1,CDR-H2,CDR-H3,group,"log10 Kd, replicates"
GYDLVEYGIS,VIYADGQRTVYSDDVK,GNHGGTIDT,En_Gibbs,n.d. n.d. n.d. n.d. n.d. n.d.
GFDLQEYGIS,VIYADGMRVSYTNTVK,GGNSMISAT,En_Gibbs,n.d. n.d. n.d. n.d. n.d. n.d.
GFTLDSYGIS,VIYSDGRRTMYGDSVK,GRAADTDDS,Ctrl,n.d. n.d. n.d. 2.09 n.d. n.d.
GDKLEDYGIS,VIYADGRRSAYVENVK,GVYAGYFDV,En_Gibbs,n.d. n.d. n.d. n.d. n.d. n.d.
GFDLNEYGIS,VIYADGRRTAYSDSVK,GEVAGTFVE,En_HC,-0.35 -0.53 -0.08 -0.73 -0.28 -0.40
GFTLESYGIS,VIYSDGRRTIYGDSVD,GRAAGTFDS,Ctrl,n.d. 2.07 n.d. n.d. n.d. 2.38
GFTLNSYGIS,VIYSDGRRTFYGDEVR,GREAGTFDS,Ctrl,1.32 1.10 n.d. 1.45 2.25 1.39
GFNLNSYGIS,VIYSDGRRTFYSDRVK,GQTAGTFDS,GP_Gibbs,0.66 0.28 0.22 0.18 0.54 0.67
GFDLDEYGIS,VIYADGQRTAYADSVK,GNNAGTFDV,En_Gen,-0.21 -0.24 -0.51 -0.31 -0.36 -0.25
GFDLDEYGVS,VIYADGERKAYADKVK,GTHGETRDI,En_Gibbs,n.d. n.d. n.d. n.d. 2.07 2.96
GFDLNEYGIS,VIYADGRRTFYADSVK,GNAAGTFDT,En_HC,-0.14 -0.43 -0.44 -0.50 -0.46 -0.03
GFQLNEYGIS,VIYSDGRRTFYGDSVK,GRYAGTFDS,GP_Gen,1.69 1.80 1.22 1.78 1.70 1.58
GFDLEEYGIS,VIYADGVREAYTENVK,GNSMGMDML,En_Gibbs,n.d. n.d. n.d. n.d. n.d. n.d.
GFDLDEYGIS,VIYADGVRTAYQDDVK,GQEAGFLYT,En_Gibbs,n.d. n.d. n.d. n.d. n.d. n.d.
GFSLNSYGIS,VIYSDGRRTFYGDRVK,GWTAGTFDS,GP_Gen,1.49 1.68 1.38 n.d. 1.34 2.75
GFDLNSYGIS,VIYSDGRRTFYGDSVK,GRAAWTFVS,GP_HC,n.d. n.d. n.d. n.d. n.d. n.d.
GFDLNEYGIS,VIYADGSRTFYADSVK,GEVAGTFDV,En_Gen,-0.28 -0.29 -0.40 -0.48 -0.51 -0.26
GFDLNEYGIS,VIYADGMRTAYADQVK,GNNAGTFDV,En_Gen,0.04 -0.49 -0.49 -0.23 -0.65 -0.26
GFTLNQYGIS,VIYSDGKRTFYSDSVK,GQAAGTFDS,GPLM_HC,0.64 0.51 0.05 -0.03 0.23 0.28
GFGLNEYGIS,VIYSDGRRTFYGDSVK,GRTAGTFDA,GP_Gen,-0.11 0.14 -0.24 -0.27 -0.07 0.07
GFDLNEYGIS,VIYADGMRTYYADNVK,GEVAGTFDV,En_Gen,n.d. n.d. n.d. n.d. n.d. n.d.
KFNLNSYGIS,VIYSDGRRTFYADSVK,GQTAGTFDS,GP_Gen,n.d. -0.30 n.d. n.d. n.d. n.d.
GFDLNTYGIS,VIYSDGRRTFYDDSVK,GQLAGTFDS,GPLM_HC,0.18 -0.09 -0.19 -0.18 -0.11 -0.17
GFDLNEYGIS,VIYADGRRTFYSDSVK,GNQAGTFDS,En_HC,-0.32 -0.45 -0.35 -0.60 -0.61 -0.48
NFDLNSYGIS,VIYSDGRRTFYGDSVK,GRTAGTFNS,GP_HC,n.d. -0.22 n.d. n.d. n.d. n.d.
GFTLNEYGIS,VIYSDGRRTFYGDSVK,GRAAGTFMS,GPLM_HC,n.d. n.d. n.d. n.d. n.d. n.d.
GFDLNEYGIS,VIYADGRRTAYADDVK,GNVAGTFDM,En_Gen,-0.37 -0.11 -0.09 -0.63 -0.49 0.09
GFHLNDYGIS,VIYSDGRRTFYQDSVK,GRLAGTFDS,GP_HC,0.03 0.32 -0.06 0.79 0.24 0.62
GFTLNSYGIS,VIYSDGRRTFYEDSVK,GRAGGTFDS,Rand,n.d. n.d. n.d. n.d. n.d. n.d.
GFDLNEYGIS,VIYADGMRTAYADSVK,GENAGTFDM,En_Gen,n.d. n.d. n.d. n.d. n.d. n.d.
GFTLNSYGIS,VIYSDGRRTFYGDSVK,NRAAGTFDQ,Ctrl,n.d. n.d. n.d. n.d. n.d. n.d.
GFTLNSYCIS,VIYSDWRRTFGDDSVK,GQLAGTFDS,Rand,n.d. n.d. n.d. n.d. n.d. n.d.
GFQLNEYGIS,VIYADGLRTGYAQNVK,GYHSFGLNQ,En_Gibbs,n.d. n.d. n.d. n.d. n.d. n.d.
GFWLNEYGIS,VIYSDGRRTFYGDSVK,GRWAGTFDS,GP_Gibbs,1.44 2.31 n.d. 2.68 1.97 2.20
GFSLNSYGIS,VIYSDGRRTFYSDAVK,GKAAGTFDS,GPLM_Gen,n.d. n.d. 2.03 2.40 1.89 n.d.
GFDLNEYGIS,VIYADGKRTAYIDSVK,GSNAGTFDV,En_Gen,-0.60 -0.73 -0.93 -0.70 -1.00 -0.71

Picked from the list: the 4 lowest averages where every replicate gave a value.

CDR-H1,CDR-H2,CDR-H3,group,"log10 Kd, replicates"
GFDLNEYGIS,VIYADGKRTAYIDSVK,GSNAGTFDV,En_Gen,-0.60 -0.73 -0.93 -0.70 -1.00 -0.71
GFDLNEYGIS,VIYADGRRTFYSDSVK,GNQAGTFDS,En_HC,-0.32 -0.45 -0.35 -0.60 -0.61 -0.48
GFDLNEYGIS,VIYADGRRTAYSDSVK,GEVAGTFVE,En_HC,-0.35 -0.53 -0.08 -0.73 -0.28 -0.40
GFDLNEYGIS,VIYADGSRTFYADSVK,GEVAGTFDV,En_Gen,-0.28 -0.29 -0.40 -0.48 -0.51 -0.26

Empty control strains, which show no peptide, gave a signal in 1% of pairings with all heavy chain designs; the median was 2.08 and 95% of these signals were weaker than 0.84. No background was subtracted.
The parent sequence was in this pool as ten entries: three were never detected, three once, and four in most replicates, with averages from 0.34 to 2.37.
Values of this round are not directly comparable with the first-round values of the same sequences.
The authors averaged sequences with at least three values out of six and counted those with two or fewer as poor binders.